Results from patent US20190343860A1 (Saint Louis University, priority 2016, published 2019).

Columns and labels:
mA3AR = target: T1, mA3AR (Mus musculus, UniProt Q61618); assay: cAMP assay, inhibition of forskolin-stimulated cAMP in mAR-transfected HEK cells; type: cell-based; conditions: species m; percentage of maximal effect of 1a, from concentration-effect curves
T1 construct: expressed in transfected cells
T1 sequence (Q61618 1-319): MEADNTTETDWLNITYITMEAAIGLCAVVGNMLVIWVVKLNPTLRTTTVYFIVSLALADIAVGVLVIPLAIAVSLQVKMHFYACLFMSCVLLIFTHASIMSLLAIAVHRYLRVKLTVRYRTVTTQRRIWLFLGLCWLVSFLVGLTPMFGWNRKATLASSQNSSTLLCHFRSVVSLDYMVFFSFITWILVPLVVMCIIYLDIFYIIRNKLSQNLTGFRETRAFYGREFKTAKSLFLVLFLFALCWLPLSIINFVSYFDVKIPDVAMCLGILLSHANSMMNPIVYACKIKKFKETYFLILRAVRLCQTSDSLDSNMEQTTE

[1] = system: mitochondria in peripheral sensory afferents (PNSAs); assay: Mitochondrial ATP production in peripheral sensory afferents after in vivo treatment; conditions: oxaliplatin 5 days, 10 mg/kg cumulative dose

Row | % efficacy (mA3AR) | SMILES | Mitochondrial function (ATP production) in PNSAs [1]
1 | 14.3 ± 6.1% | O[C@@H]1[C@H](O)[C@@H]2C[C@@H]2[C@H]1n1cnc2c(NCCc3ccccc3)nc(C#Cc3ccccc3)nc21 [Cmpd 14] | –
2 | – | O=C1[O][Pt]2([NH][C@@H]3CCCC[C@H]3[NH]2)[O]C1=O [oxaliplatin, reference compound] | reduced ATP production
